PubChem BioAssay (NCI)
“And” between values parts separate entries of the source, which are not always exact repeats. Equal values may be shown once. The list shows a part of the results, in another mix than the full data. Some salts and complexes are drawn in separate pieces, as the source files them; their charges need not balance. The source made the active and inactive calls. Rule as the data show it: active = growth inhibition above about 70%; inactive = the rest.

experiment: NCI Yeast Anticancer Drug Screen. Data for the sgs1 mgt1 strain (AID 161);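 also: 0% = growth of cultures given vehicle only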; conditions: S. cerevisiae sgs1 mgt1 strain, at 50.0 µM, stronger effect = higher value

| Compound | growth inhibition |
| --- | --- |
| CS/C(=C/[S+](C)C)c1ccccc1.O=[N+]([O-])c1cc([N+](=O)[O-])c(S(=O)(=O)[O-])c([N+](=O)[O-])c1 | inactive: 51.6% |
| CC(C)OP(C)(=O)O.[Tl] | inactive: 2.35% |
| COc1ccc([N+](=O)[O-])cc1[N+](=O)[O-] | inactive: 0.35% |
| N/C(=N\[N+](=O)[O-])N(N)CCN(N)/C(N)=N/[N+](=O)[O-] | inactive: 5.7% |
| NN/C(N)=N/[N+](=O)[O-] | inactive: -4.25% |
| CCCCCCCCCCOP(=O)(Cl)CC (centres undefined) | inactive: -2.65% |
| NCCO.O=[N+]([O-])c1cc([N+](=O)[O-])c(O)c([N+](=O)[O-])c1 | inactive: -0.25% |
| COc1ccc2c3c1O[C@H]1C4(OC)CCC5(CC4C(C)(C)O)[C@@H](C2)N(C)CC[C@]315 (some centres undefined) | inactive: -11.9% |
| CCOP(C)(=S)Oc1ccc([N+](=O)[O-])cc1 (centres undefined) | inactive: 13.4% |
| CN/C(N)=N/[N+](=O)[O-] | inactive: -3.65% |
| [C-]#[O+].[Co].[c-]1[c-][c-][cH-][c-]1.c1ccc([PH+](c2ccccc2)c2ccccc2)cc1 | inactive: -8.5% |
| COC(=O)C(C)(C)C(OP(C)(=O)OC)=C(C)C (centres undefined) | inactive: -0.35% |
| O=[N+]([O-])c1cc([N+](=O)[O-])cc([N+](=O)[O-])c1.c1ccc(CCc2cccc3c2ccc2ccccc23)cc1 | inactive: 9.45% |
| O=[N+]([O-])c1cc([N+](=O)[O-])c(NNc2c([N+](=O)[O-])cc([N+](=O)[O-])cc2[N+](=O)[O-])c([N+](=O)[O-])c1 | active: 98.2% |
| CCOC(=O)C(CCSC)Nc1nc2ccccc2o1.O=[N+]([O-])c1cc([N+](=O)[O-])c(O)c([N+](=O)[O-])c1 (centres undefined) | inactive: 5.7% |
| O=[N+]([O-])C(F)(CCNCC(F)([N+](=O)[O-])[N+](=O)[O-])[N+](=O)[O-] | active: 92.6% |
| CC1CN1.O=[N+]([O-])c1cc([N+](=O)[O-])c(S(=O)(=O)O)c([N+](=O)[O-])c1 | inactive: 34.8% |
| CCC([N+](=O)[O-])[N+](=O)[O-] | inactive: 7.05% and inactive: 27.1% |
| COc1ccc2c3c1OC1C4(OC)C=CC5(CC4C(C)=O)[C@@H](C2)N(C)CC[C@]315 (some centres undefined) | inactive: 3.75% |
| NCc1ccccc1.O=[N+]([O-])c1cc([N+](=O)[O-])c(O)c([N+](=O)[O-])c1 | inactive: -3.2% |

| Compound | growth inhibition |
| --- | --- |
| COc1c([N+](=O)[O-])cc(Cc2cc([N+](=O)[O-])c(OC)c([N+](=O)[O-])c2)cc1[N+](=O)[O-] | inactive: 8.25% |
| C/C=C/Sc1ccccn1.O=[N+]([O-])c1cc([N+](=O)[O-])c(O)c([N+](=O)[O-])c1 | inactive: 42.5% |
| O=[N+]([O-])c1cc([N+](=O)[O-])c(O)c([N+](=O)[O-])c1.SCCCc1cccnc1 | inactive: 4.3% |
| Br.C[N+]12CCCN(CC1)CC2.O=[N+]([O-])c1cc([N+](=O)[O-])c(O)c([N+](=O)[O-])c1.[Br-] | inactive: 12.8% |
| CCOP(=O)(O)CC.[Eu] | inactive: -3.45% |
| OCCSCCO | inactive: 57.2% |
| CCN(CC)CCOC(=O)C(O)(c1ccccc1)c1ccc(OC)cc1 (centres undefined) | inactive: 39.1% |
| Cc1cc(N(CCCl)CCCl)ccc1C1OCCO1.[C-]#[O+].[C-]#[O+].[C-]#[O+].[Cr] | inactive: 17% |
| CCCCOP(=S)(S)OCCCC.[Hg] | inactive: 38.8% |
| O=C(CCN1CCCC(O)C1COC(=O)C(O)(c1ccccc1)c1ccccc1)NCc1ccccc1 (centres undefined) | inactive: -31.2% |
| CC(C)OP(C)(=O)O.[Tm] | inactive: -0.75% |
| CCN(CC)CCCN.O=[N+]([O-])c1cc([N+](=O)[O-])c(O)c([N+](=O)[O-])c1 | inactive: 21.8% |
| O=[N+]([O-])c1cc([N+](=O)[O-])c(O)c([N+](=O)[O-])c1.c1ccc(C2CNCCN2)cc1 | inactive: 33.5% |
| C=C1C(=O)C2CCN1CC2.O=[N+]([O-])c1cc([N+](=O)[O-])c(O)c([N+](=O)[O-])c1 | inactive: 27.5% |
| CC(CO)NC1CCCC1.O=[N+]([O-])c1cc([N+](=O)[O-])c(O)c([N+](=O)[O-])c1 | inactive: 8% |
| CN1CCC2(CC1)NC1CCN(C)CC1S2 (centres undefined) | inactive: 2.7% |
| Cc1ccc(N=[N-])cc1.[C-]#[O+].[Mo].[c-]1[c-][c-][cH-][c-]1.c1ccc([PH+](c2ccccc2)c2ccccc2)cc1 | inactive: -23.2% |
| CN([PH+](F)F)[PH+](F)F.CN([PH+](F)F)[PH+](F)F.CN([PH+](F)F)[PH+](F)F.CN([PH+](F)F)[PH+](F)F.CN([PH+](F)F)[PH+](F)F.[Ni].[Ni] | inactive: 8.75% |
| Cc1ccc(N(C)C)cc1.O=[N+]([O-])c1cc([N+](=O)[O-])c(O)c([N+](=O)[O-])c1 | inactive: 5.55% |
